This passage reports relative growth results from published antibiotic growth screens (doi:10.1038/s41589-023-01349-8).

The other results are listed elsewhere or left out.

The assay concerns A. baumannii ATCC 17978. Briefly: relative growth (fraction of control); higher = less inhibition. As to conditions: 50 µM.
`Nc1cccc2c1CN(C1CCC(=O)NC1=O)C2=O` (stereo not given): the relative growth turned out to be 1.19.

Consider `Cc1cccc2c3c(ccc12)C1=C(C(=O)C3=O)C(C)CO1` (stereo not given), for which the relative growth turned out to be 0.924.

`O=C(C[C@H]1C=C[C@@H](NS(=O)(=O)c2ccc(F)cc2)[C@@H](CO)O1)N1CCC(Cc2ccccc2)CC1`: the relative growth turned out to be 0.855.

`CCOC(=O)CSc1nc(=O)cn[nH]1` came in with a relative growth of 1.16.

`O=C(C[C@H]1CC[C@@H]2[C@H](COC[C@H](O)CN2S(=O)(=O)c2ccc(F)cc2)O1)NCCN1CCCCC1` had a relative growth of 0.897.

For the molecule `NCc1cn(-c2ccccc2)nc1C12CC3CC(CC(C3)C1)C2`, the relative growth was 0.11.

Take `CN(C)CCCNC(=O)C[C@H]1C=C[C@H](NC(=O)Cc2cccnc2)[C@H](CO)O1`: the relative growth is 0.951.

Molecule `Cc1cc(O)c(C=O)c2c1C(=O)Oc1c(COC(=O)/C=C/C(=O)O)c(O)c(C(=O)O)c(C)c1O2` had a relative growth of 1.06.

The molecule `O=C(O)[C@H]1O[C@@H](Oc2c(-c3ccc(O)cc3)oc3cc(O)cc(O)c3c2=O)[C@H](O)[C@@H](O)[C@@H]1O` came in with a relative growth of 1.08.

Molecule `COc1ccc(S(=O)(=O)N(C)C[C@@H]2Oc3c(NC(=O)Nc4cccc5ccccc45)cccc3C(=O)N([C@@H](C)CO)C[C@H]2C)cc1F` had a relative growth of 1.06.

Molecule `C[C@H]1CN([C@@H](C)CO)S(=O)(=O)c2ccc(C#CCN(C)C)cc2O[C@@H]1CN(C)S(C)(=O)=O` yielded a relative growth of 1.17.

`CC(C)CC#Cc1ccc2c(c1)O[C@@H](CN(C)C(=O)Cc1cccnc1)[C@H](C)CN([C@H](C)CO)S2(=O)=O` yielded a relative growth of 0.861.

In the case of `N#CNC1=NCN(CCN2CCOCC2)CN1`, the relative growth is 0.99.

With `C[C@@H]1CC[C@@]2(OC1)O[C@H]1CC3C4CC[C@H]5C[C@@H](O)CC[C@]5(C)C4CC[C@]3(C)[C@H]1[C@@H]2C` (stereo not given in full), the relative growth was determined as 1.14.

On to `Brc1c(NC2=NCCN2)ccc2nccnc12`, for which the relative growth was 1.15.

The molecule `O=S(=O)(NCC[C@@H]1CC[C@H](NS(=O)(=O)c2ccccc2Cl)[C@H](CO)O1)c1ccc(F)cc1` returned a relative growth of 1.22.

`COC(=O)CNS(=O)(=O)c1ccsc1C(=O)OC` registered a relative growth of 0.976.

On to `O=C(Cc1ccccn1)NCC[C@@H]1CC[C@@H](NC(=O)CN2CCOCC2)[C@H](CO)O1`, for which the relative growth was determined as 1.11.

On to `CN1C2CCC1CC(OC(=O)c1c[nH]c3ccccc13)C2.Cl` (stereo not given), for which the relative growth worked out at 0.979.

Regarding `O=C(C[C@@H]1CC[C@@H]2[C@H](COC[C@H](O)CN2S(=O)(=O)c2ccc(Cl)cc2)O1)NCCN1CCCC1`, the relative growth was determined as 1.04.

As for `COc1ccc(C2=C(N)C(=O)NC2=O)cc1OC`, the relative growth was determined as 0.918.

Molecule `OC[C@H]1NC[C@@H](O)[C@@H](O)[C@@H]1O` had a relative growth of 0.942.

The molecule `COc1cccc(NC(=O)N[C@H]2CC[C@H](CC(=O)N3CCN(C)CC3)O[C@@H]2CO)c1` gave a relative growth of 0.874.

Molecule `CO[C@H](CN(C)C(=O)c1ccc2c(c1)OCO2)[C@@H](C)CN([C@H](C)CO)S(=O)(=O)c1ccc(F)cc1` had a relative growth of 0.854.

As for `O=C(OCc1ccccc1)c1ccccc1`, the relative growth is 0.928.

`C[C@H]1[C@H](NC(=O)/C(=N/OC(C)(C)C(=O)O)c2csc(N)n2)C(=O)N1S(=O)(=O)O` gave a relative growth of 0.147.

Molecule `O=C(O)C[C@H]1Nc2ccccc2NC1=O` registered a relative growth of 1.04.

Regarding `NC[C@@H]1CC(=O)N(c2ccccc2)C1`, the relative growth was 0.891.

`CCOC(=O)CC1(C)NNC(=S)NN1` returned a relative growth of 0.947.

`COCC(=O)N1C[C@H](C)[C@H](OC)CN(C)C(=O)c2cc(NC(=O)c3ccc(OC)cc3)ccc2OC[C@H]1C` returned a relative growth of 1.12.

Molecule `O=S1(=O)NCC2(COC2)O1` had a relative growth of 0.881.

Molecule `O=C(CCCCCCC(=O)Nc1ccccc1O)N/N=C/[C@H](O)[C@@H](O)[C@@H](O)[C@H](O)C(=O)O` returned a relative growth of 1.02.

Molecule `O=C(NC1(C(F)(F)F)Oc2cc(Cl)c(Cl)cc2O1)C1=C(N2CCOCC2)/C(=C/c2ccccc2)CC1` displayed a relative growth of 0.651.

On to `Cc1ccc2c(Cl)cc(Cl)c(O)c2n1`, for which the relative growth amounted to 1.31.

`NCc1c[nH]nc1-c1ccccc1` had a relative growth of 0.855.

As for `CC(=O)OCC(=O)[C@@]1(O)CCC2C3CCC4=CC(=O)CC[C@]4(C)C3[C@@H](O)C[C@@]21C` (stereo not given in full), the relative growth worked out at 0.985.

`N#CCSc1n[nH]c(=O)[nH]c1=O` had a relative growth of 0.946.

In turn, `CNC(=O)c1cc(S(=O)(=O)N(C)C[C@@H]2Oc3ccc(NC(=O)Nc4ccc(F)cc4)cc3CC(=O)N([C@@H](C)CO)C[C@@H]2C)cs1` came in with a relative growth of 0.837.

Molecule `Cc1cc(N)n(-c2nc(=O)cc(C)[nH]2)n1` returned a relative growth of 0.898.

`Cn1cc(S(=O)(=O)N2CCN(Cc3ccccc3)CC2)c(=O)n(C)c1=O`: the relative growth turned out to be 1.16.

On to `Cl.NC(CO)C(=O)NNCc1ccc(O)c(O)c1O` (stereo not given), for which the relative growth came out at 0.985.

`O=S(=O)(NCCCCN(C/C=C/c1ccc(F)cc1)C/C=C/c1ccc(F)cc1)c1cccc2cnccc12`: the relative growth was 1.16.

With `CN(Cc1cnc2nc(N)nc(N)c2n1)c1ccc(C(=O)NC(CCC(=O)O)C(=O)O)cc1.O` (stereo not given), the relative growth came to 1.07.

In the case of `O=C(O)Cn1cc2c(n1)CCCC2`, the relative growth turned out to be 1.05.

On to `O=c1[nH]cc(NCc2ccccc2)c(=O)[nH]1`, for which the relative growth came to 1.03.

The molecule `c1ccc(-n2ncc3c2ncn2nnnc32)cc1` showed a relative growth of 1.01.

In turn, `Nc1cc(-c2ccncc2)c[nH]c1=O` yielded a relative growth of 1.14.

In turn, `NC(=O)Nc1nc2ccccc2[nH]c1=O` had a relative growth of 0.929.

With `COCCOC(=O)N1C(=O)[C@@]2(c3cc(C#Cc4ccc(OC)cc4)ccc31)[C@H](c1ccccc1OCCO)N1[C@H](c3ccccc3)[C@H](c3ccccc3)OC(=O)[C@H]1[C@@H]2C(=O)N1CCc2cc(OC)c(OC)cc2C1`, the relative growth stood at 1.06.

As for `Cc1ccc(/C=N/Nc2cnnc(=O)[nH]2)o1`, the relative growth was determined as 1.03.

`O=C(NCCO)c1nc(NCCO)c2ccccc2n1` came in with a relative growth of 1.03.

On to `Cc1nnnn1CC(=O)Nc1ccc(F)cc1`, for which the relative growth was 0.957.

For `CC1(C)C[C@H](n2[nH]c(=O)cc2N)CCO1`, the relative growth worked out at 0.89.

`COc1cccc(C#Cc2ccc3c(c2)O[C@H](CN(C)C(=O)CN2CCOCC2)[C@H](C)CN([C@H](C)CO)S3(=O)=O)c1` yielded a relative growth of 0.827.

With `C=CCNc1nc(C)nc(OC)n1`, the relative growth worked out at 1.05.

In the case of `Cc1cccc(S(=O)(=O)N2C[C@H](O)COC[C@H]3O[C@@H](CC(=O)N4CCN(C)CC4)CC[C@@H]32)c1`, the relative growth came out at 1.16.

`Cn1c[n+](NC(=O)c2ccc(C(=O)ON3C(=O)CCC3=O)cc2)cn1` came in with a relative growth of 1.01.

Regarding `CCS(=O)(=O)Nc1ccc2c(c1)C(=O)N(C)C[C@H](OC)[C@H](C)CN(Cc1ccccn1)[C@H](C)CO2`, the relative growth was determined as 0.944.

The molecule `CCCCCCCCC(=O)O` showed a relative growth of 1.05.

`C[C@H]1CN([C@@H](C)CO)S(=O)(=O)c2ccc(C#CCN(C)C)cc2O[C@@H]1CN(C)Cc1ccccn1`: the relative growth was 1.04.

On to `COC(=O)C[C@@H]1C(C)(C)[C@H](OC(C)=O)[C@@H]2[C@@H](OC(C)=O)[C@]34O[C@@]2(O)[C@]1(C)[C@H]3CC[C@]1(C)C4=CC(=O)O[C@H]1c1ccoc1`, for which the relative growth came out at 1.02.

The molecule `S=C(c1cccs1)N1CCCC1` registered a relative growth of 0.984.

`Cc1c(C)c(C)c(CSc2ccccc2N)c(C)c1C` displayed a relative growth of 0.989.

On to `Cn1cnc(CCNC(=O)C[C@H]2CC[C@H]3[C@@H](COC[C@H](O)CN3C(=O)Nc3ccc(Cl)cc3)O2)c1`, for which the relative growth is 0.901.

As for `OC[C@H]1O[C@H](OC[C@H]2O[C@@H](O)[C@H](O)[C@@H](O)[C@@H]2O)[C@H](O)[C@@H](O)[C@H]1O`, the relative growth is 1.23.

For `O=C(NO)c1cccc(C(=O)N/N=C/[C@H](O)[C@@H](O)[C@@H](O)[C@H](O)CO)c1`, the relative growth was 1.

`COC(=O)Cc1cc(=O)n(-c2ccccc2)[nH]1` showed a relative growth of 0.963.

For `COCC(=O)N1C[C@H](C)[C@H](OC)CN(C)C(=O)c2ccc(NC(=O)c3ccc(OC)cc3)cc2OC[C@@H]1C`, the relative growth was determined as 0.987.

As for `CC(=O)OC1CCC2(C)C(=CC=C3C2CCC2(C)C3CCC2C(C)/C=C/C(C)C(C)C)C1(C)C` (stereo not given), the relative growth came to 1.31.

On to `CN(C=O)CP(=O)(O)CN1CCCCC1`, for which the relative growth was determined as 1.1.

The molecule `C[C@@H]1CNC(=O)CCO1` showed a relative growth of 1.15.

For `CC(C)C#Cc1ccc2c(c1)O[C@H](CN(C)C(=O)c1cnccn1)[C@@H](C)CN([C@@H](C)CO)S2(=O)=O`, the relative growth was 0.92.

On to `CNCCCN1c2ccccc2CCc2ccccc21.Cl`, for which the relative growth was found to be 0.908.

Molecule `C[C@@H]1CN([C@@H](C)CO)S(=O)(=O)c2ccc(C#C[C@@H](C)O)cc2O[C@@H]1CN(C)C(=O)C1CCCCC1` gave a relative growth of 0.865.

The molecule `COC(=O)c1ccc([C@H]2C=C(C(=O)N3CCOCCOCCOCCOCC3)O[C@@H](OCCCCO)C2)cc1` displayed a relative growth of 1.18.

Turning to `CCC(C)[C@H]1O[C@]2(CC[C@@H]1C)C[C@@H]1C[C@@H](C/C=C(\C)[C@@H](OC3C[C@H](OC)C(O[C@H]4C[C@H](OC)[C@@H](O)[C@H](C)O4)[C@H](C)O3)[C@@H](C)/C=C/C=C3\CO[C@@H]4[C@H](O)C(C)=C[C@@H](C(=O)O1)[C@]34O)O2` (stereo not given in full), the relative growth turned out to be 0.868.

In turn, `N[C@@H]1CCCN(Cc2ccncc2)[C@H]1c1ccccc1F` yielded a relative growth of 1.01.

`N[C@@H](Cc1cc(I)c(Oc2cc(I)c(O)c(I)c2)c(I)c1)C(=O)[O-].[Na+]` gave a relative growth of 0.946.

The molecule `NC[C@H]1O[C@H](O[C@H]2C(O[C@@H]3O[C@H](CO)[C@@H](O)[C@H]3O)[C@@H](O)[C@H](N)C[C@@H]2N)[C@H](N)[C@@H](O)[C@@H]1O.O=S(=O)(O)O` (stereo not given in full) displayed a relative growth of 1.01.

Consider `CCNC(=S)N1CCC[C@H](C(N)=O)C1`, for which the relative growth was 0.963.

`Cc1c(NC(C)C)c(=O)n(-c2ccccc2)n1C.Cl`: the relative growth amounted to 1.2.

`CN1C[C@H](O)COC[C@H]2O[C@H](CC(=O)N3CCN(c4ccccc4)CC3)CC[C@@H]21` gave a relative growth of 1.04.

`CC(=O)NCC(=O)O.CC(=O)NCC(=O)O.N=C(N)c1ccc(/N=N/Nc2ccc(C(=N)N)cc2)cc1` had a relative growth of 1.02.

`O=C1O[C@H](c2ccccc2)[C@H](c2ccccc2)N2[C@H]1[C@@H](C(=O)NC[C@@H](O)c1ccccc1)[C@]1(C(=O)Nc3ccc(C#CC4=CCCCC4)cc31)[C@H]2c1ccccc1OCCO`: the relative growth came to 1.11.

`NC(N)=O` came in with a relative growth of 1.01.

`Cn1cnc(S(=O)(=O)N2C[C@H](O)COC[C@H]3O[C@@H](CC(=O)NC4Cc5ccccc5C4)CC[C@@H]32)c1`: the relative growth came out at 1.07.

The molecule `Cn1c([N+](=O)[O-])cnc1COC(N)=O` showed a relative growth of 0.175.

`C[C@H]1CNCCO1` had a relative growth of 1.12.

The molecule `C=C(C)[C@H]1CC=C(C(=O)O)CC1` gave a relative growth of 1.02.

Consider `Nc1cccc(/C=C/c2ccccn2)c1`, for which the relative growth is 0.881.
